{"source": "patent US20240108738A1", "about": "“BICYCLIC PEPTIDE LIGANDS SPECIFIC FOR NK CELLS” (Bicycle Tx Limited, priority 2021, published 2024)", "biological_target": "T1, CD16a/FCgRIIIa (F158 variant) (Homo sapiens, UniProt P08637)", "T1 construct": "host or cells: HEK293", "experiment": "CD16a/FCgRIIIa HTRF assay (IgG competition on HEK293 cells)", "format": "binding", "data": [{"smiles": "CCCC[C@H](N)C(=O)N[C@H]1CSCc2nc3nc(n2)CSC[C@H](NC(=O)[C@@H]2CCCN2C(=O)[C@H](CCC(=O)O)NC(=O)[C@H](CO)NC(=O)[C@H](CCc2ccccc2)NC(=O)[C@H](Cc2c[nH]cn2)NC(=O)[C@H](Cc2c[nH]c4ccccc24)NC(=O)[C@H](CCCNC(=N)N)NC1=O)C(=O)NCC(=O)N[C@@H](C)C(=O)N[C@@H](Cc1c[nH]c2ccccc12)C(=O)N[C@H](C(=O)N[C@@H](C)C(N)=O)CSC3", "note": "[BCY21695, [Nle]-(SEQ ID NO: 230)-A]", "values": [{"measurement": "IC50", "result": 100, "unit": "nM"}]}]}
